Data: US8050868B2, “Methods for determining the organization of a cellular component of interest” (Cellomics, Inc., priority 2001, dated 2011)

Legend:
[1] = test system: microtubules; assay: Microtubule organization using concentric perinuclear ring masks; format: cell-based; details: five sequential dilations of perinuclear ring mask; duplicate wells
Method: Domains were defined by five sequential dilations of a perinuclear ring mask, and measurements were made of the mean microtubule-associated intensity, the standard deviation of the microtubule-associated intensity, the mean cytoplasm to nucleus fluorescence intensity ratio, and cell-normalized microtubule fluorescence intensity. For each drug treatment condition, experiments were performed in duplicate.
Finally, the slope of the best linear fit of the microtubule associated fluorescence was calculated as a function of the angular dilation. This way, it was possible to compare the rate of change of these parameters as a function of domain position.

[2] = test system: microtubules; assay: Preliminary time-course and 12 hour dose-response evaluations of microtubule polymer mass; format: cell-based; details: 12 hour dose-response
Method: Cell culture/drug treatments: Cells were plated on 96-well plates in the appropriate cell culture media plus 10% FBS. […] Different plating densities and treatment times were explored to maximize the observable effects of the drugs.
Immunofluorescence: This included three steps: (1) Extraction of soluble (monomeric) tubulin by permeabilizing the cells with 0.5% Triton X-100 in a microtubule stabilizing buffer, in order to remove unpolymerized tubulin. (2) Fixation of intracellular protein with 4% formaldehyde. (3) Microtubule, DNA, and (optional) total cellular protein fluorescence labeling. […]
Image Analysis: Quantitative determination of microtubule polymer levels was performed using the methods described above. […] The nuclear image was dilated to produce a perinuclear ring mask, where cytoplasmic tubulin polymer was measured. […]
Quantitation of microtubule-associated intensity was carried out by summing the pixel intensities in the microtubule (MT) channel in the area covered by the perinuclear ring mask. […] From these measurements a MT polymerization index was calculated by normalizing the amount of MT fluorescence in a treated, “experimental” cell population, versus the amount of MT-associated fluorescence in an untreated, control cell population. […] Other methods of quantitation that were used are described below. […]

COc1cc2c(c(OC)c1OC)-c1ccc(OC)c(=O)cc1[C@@H](NC(C)=O)CC2 [colchicine]
effect on microtubule organization [1]: microtubule disruption
quality of dose-response data [2]: good dose-response curves
